Chains of the proteins cited; added tags and fusions are not shown. Lines headed by an entry give the natural chain unless they say otherwise; changes in a name come on top.
UniProt P04062: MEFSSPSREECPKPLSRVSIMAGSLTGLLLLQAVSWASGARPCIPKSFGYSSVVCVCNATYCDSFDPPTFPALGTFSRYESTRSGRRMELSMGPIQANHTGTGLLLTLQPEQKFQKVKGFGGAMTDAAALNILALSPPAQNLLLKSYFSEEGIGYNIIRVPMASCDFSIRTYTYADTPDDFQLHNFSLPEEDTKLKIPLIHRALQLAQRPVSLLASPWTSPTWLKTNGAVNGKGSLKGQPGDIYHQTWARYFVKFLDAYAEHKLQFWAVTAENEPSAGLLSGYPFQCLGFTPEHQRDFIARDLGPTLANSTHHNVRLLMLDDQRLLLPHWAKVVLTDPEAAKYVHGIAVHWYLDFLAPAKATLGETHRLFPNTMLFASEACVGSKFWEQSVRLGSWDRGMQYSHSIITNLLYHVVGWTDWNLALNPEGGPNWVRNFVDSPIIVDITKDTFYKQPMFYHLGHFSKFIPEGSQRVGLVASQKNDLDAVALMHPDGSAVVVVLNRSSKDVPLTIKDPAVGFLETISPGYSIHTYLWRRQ

Only a part is listed here, and it is no random draw. Inconclusive results are not listed. Calls of active or inactive are those of the source. The call rests on the fitted dose curve; in most records, active means well fitted inhibition curve with a large enough effect; inconclusive means small, poorly fitted or top-dose-only effect, or effect the other way; inactive means flat fitted curve, though single readings scatter.
The compounds below were run against Lysosomal acid glucosylceramidase (Homo sapiens) (UniProt P04062) (assay: qHTS Assay for Inhibitors and Activators of N370S glucocerebrosidase as a Potential Chaperone Treatment of Gaucher Disease: Purified N370S Glucocerebrosidase Cleavage of Glucosylceramide). Conditions: purified N370S GCase.
Source text: NIH Chemical Genomics Center [NCGC]
NIH Molecular Libraries Probe Production Centers Network [MLPCN]
Assay Submitter (PI): Wei Zheng
Glucocerebrosidase (GC) catalyzes the hydrolysis of beta-glucocerebroside to glucose and ceramide in lysosomes. Mutations in the glucocerebrosidase gene result in Gaucher disease, an autosomal recessive lysosomal storage disorder. Many of the mutations encountered in patients with Gaucher disease are missense alterations that may cause misfolding, decreased stability and/or mistrafficking of this lysosomal protein. […] These inhibitors include iminosugar analogs and three non-iminosugar inhibitors identified from a previous HTS of 62,000 compounds with the wild type recombinant enzyme. However, the enhancement of enzyme activity by the chaperone action of an enzyme inhibitor must be balanced against the direct inhibition of the enzyme. An enzyme activator could also function as a chaperone by binding to the enzyme and helping to correct its misfolding and mistrafficking. While activators for GC have not yet been identified, they may have better therapeutic potential than inhibitors. Therefore the discovery and development of chemical activators may provide a new strategy for the chaperone therapy.
We have optimized a new assay using N370S mutant GC derived from the spleen of a Gaucher patient. […]
This is an enzyme assay using glucosylceramide from soy (Avanti Polar Lipids Catalog #: 131304P) as the substrate and recombinant human glucocerebrosidase as the enzyme preparation. Upon hydrolysis of the substrate, the glucose product can be detected using the Amplex Red Glucose Oxidase Assay Kit (Invitrogen catalog #: A22189). The product of this reaction can be read with a fluorescence plate reader with an excitation at 573 nm and an emission at 610 nm. […] The AC50 values were determined from concentration-response data modeled with the standard Hill equation. […]
(7) Detect the assay plate in a ViewLux plate reader (PerkinElmer) with Ex=573 nm and Em=610nm. […]
With `CCc1nnc(NC(=O)c2ccc(NS(=O)(=O)c3ccccc3)cc2)s1` the Potency was active: 7.94 µM.
In the case of `Cc1cc(N2CCOCC2)nc2ccc(NC(=O)C3CCCCC3)cc12`, the Potency is reported as active: 14.1 µM.
In the case of `COc1ccc(Cl)cc1Nc1nc(NCCO)nc(N2CCCC2)n1`, the Potency is reported as active: 31.6 µM.

Reference: PubChem BioAssay AID2596 (National Center for Advancing Translational Sciences (NCATS), 2010)
